Assay results from BindingDB's records for PubMed 9400006 (Emory University, 1997).
“And” between values parts separate entries of the source, which are not always exact repeats. Equal values may be shown once.

Chains of the proteins cited; added tags and fusions are not shown.
UniProt P23975, whole entry: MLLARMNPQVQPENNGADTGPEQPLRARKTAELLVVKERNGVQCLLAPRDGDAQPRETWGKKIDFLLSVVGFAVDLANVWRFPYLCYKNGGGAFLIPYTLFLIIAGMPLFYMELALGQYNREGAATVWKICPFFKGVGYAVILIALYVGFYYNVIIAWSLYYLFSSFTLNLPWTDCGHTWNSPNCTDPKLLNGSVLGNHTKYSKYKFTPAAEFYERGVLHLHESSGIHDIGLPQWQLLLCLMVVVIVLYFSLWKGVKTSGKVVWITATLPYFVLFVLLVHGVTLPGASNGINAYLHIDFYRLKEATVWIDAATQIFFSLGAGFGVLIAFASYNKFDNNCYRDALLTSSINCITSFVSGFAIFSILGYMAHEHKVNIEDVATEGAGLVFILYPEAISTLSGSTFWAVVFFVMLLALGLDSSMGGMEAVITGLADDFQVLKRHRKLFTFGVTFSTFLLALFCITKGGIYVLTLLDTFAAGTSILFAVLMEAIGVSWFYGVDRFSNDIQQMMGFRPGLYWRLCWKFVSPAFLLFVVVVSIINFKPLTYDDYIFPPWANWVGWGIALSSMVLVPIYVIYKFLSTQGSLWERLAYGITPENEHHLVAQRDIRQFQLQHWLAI
UniProt P31652, whole entry: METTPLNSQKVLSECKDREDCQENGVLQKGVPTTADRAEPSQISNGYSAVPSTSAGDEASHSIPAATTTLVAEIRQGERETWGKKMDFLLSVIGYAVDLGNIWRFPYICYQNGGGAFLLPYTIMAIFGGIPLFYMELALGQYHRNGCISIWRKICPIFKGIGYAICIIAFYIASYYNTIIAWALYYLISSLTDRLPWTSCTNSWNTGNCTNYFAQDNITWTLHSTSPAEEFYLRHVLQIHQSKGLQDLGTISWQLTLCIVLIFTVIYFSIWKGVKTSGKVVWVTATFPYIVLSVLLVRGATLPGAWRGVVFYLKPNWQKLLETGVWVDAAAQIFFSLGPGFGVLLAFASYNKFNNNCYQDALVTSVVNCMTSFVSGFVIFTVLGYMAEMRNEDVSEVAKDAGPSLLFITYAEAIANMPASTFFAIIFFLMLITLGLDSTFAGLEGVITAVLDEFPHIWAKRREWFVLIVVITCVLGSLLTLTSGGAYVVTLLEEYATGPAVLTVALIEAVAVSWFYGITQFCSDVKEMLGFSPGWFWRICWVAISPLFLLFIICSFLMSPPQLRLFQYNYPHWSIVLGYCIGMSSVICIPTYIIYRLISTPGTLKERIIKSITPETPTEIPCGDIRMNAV
UniProt P08913, whole entry: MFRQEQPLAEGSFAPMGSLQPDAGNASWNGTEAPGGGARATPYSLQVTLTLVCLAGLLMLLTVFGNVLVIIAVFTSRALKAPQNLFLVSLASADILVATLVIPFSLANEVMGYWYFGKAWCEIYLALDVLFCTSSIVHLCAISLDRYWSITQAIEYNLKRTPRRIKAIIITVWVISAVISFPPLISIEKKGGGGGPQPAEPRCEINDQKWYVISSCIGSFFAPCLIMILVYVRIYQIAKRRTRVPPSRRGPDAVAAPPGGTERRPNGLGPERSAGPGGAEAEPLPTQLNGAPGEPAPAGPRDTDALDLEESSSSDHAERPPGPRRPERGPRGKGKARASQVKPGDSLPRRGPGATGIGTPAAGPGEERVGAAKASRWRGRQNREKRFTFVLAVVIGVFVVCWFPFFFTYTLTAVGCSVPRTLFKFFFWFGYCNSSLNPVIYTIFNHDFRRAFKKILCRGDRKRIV
UniProt P19327, whole entry: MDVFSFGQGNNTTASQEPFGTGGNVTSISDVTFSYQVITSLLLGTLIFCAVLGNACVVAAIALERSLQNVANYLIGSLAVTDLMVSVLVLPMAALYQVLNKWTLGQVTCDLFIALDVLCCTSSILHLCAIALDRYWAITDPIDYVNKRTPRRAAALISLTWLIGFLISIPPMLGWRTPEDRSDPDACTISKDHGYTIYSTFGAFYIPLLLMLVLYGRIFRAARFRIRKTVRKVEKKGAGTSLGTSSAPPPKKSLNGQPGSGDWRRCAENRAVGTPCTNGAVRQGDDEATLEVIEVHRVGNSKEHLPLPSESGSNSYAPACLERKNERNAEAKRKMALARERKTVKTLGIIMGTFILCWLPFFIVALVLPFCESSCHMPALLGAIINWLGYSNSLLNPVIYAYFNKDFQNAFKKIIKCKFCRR

How the values were obtained:
[1] = target: Sodium-dependent noradrenaline transporter (Homo sapiens, UniProt P23975)
[2] = target: Sodium-dependent serotonin transporter (Rattus norvegicus, UniProt P31652)
[3] = target: Alpha-2A adrenergic receptor (Homo sapiens, UniProt P08913)
[4] = target: Norepinephrine transporter (Rattus norvegicus, UniProt Q9JIA2)
[5] = target: 5-hydroxytryptamine receptor 1A (Rattus norvegicus, UniProt P19327)

**Q.** How did the Ki [1] turn out when CN(C)CCCN1c2ccccc2CCc2ccccc21 was run?
**A.** 20 nM and 142 nM

**Q.** How did the Ki [2] turn out when N[C@H]1CC[C@@H](c2ccc(Cl)c(Cl)c2)c2ccccc21 was run?
**A.** 4.6 nM

**Q.** Which Ki [3] does the source give for CCc1nn(CCCN2CCN(c3cccc(Cl)c3)CC2)c(=O)n1CCOc1ccccc1 [2-{3-[4-(3-chlorophenyl)piperazin-1-yl]propyl}-5-ethyl-4-(2-phenoxyethyl)-2,4-dihydro-3H-1,2,4-triazol-3-one] here?
**A.** 84 nM

**Q.** With CN(C)CC(c1ccc(O)cc1)C1(O)CCCCC1 (configuration not stated) [CAS_386750-22-7] as the molecule, how does the Ki [1] read?
**A.** 2750 nM and 3150 nM

**Q.** CNCCC=C1c2ccccc2CCc2ccccc21 [NORTRIPTYLINE] was tested. Which Ki [2] did it give?
**A.** 60 nM

**Q.** Which Ki [4] does the source give for COc1ccc(C(CN(C)C)C2(O)CCCCC2)cc1 (configuration not stated) [NSC_62923] here?
**A.** 1070 nM

**Q.** Which Ki [5] does the source give for NCCc1c[nH]c2ccc(O)cc12 [[3H]-5-HT] here?
**A.** 0.12 nM
